Test results from patent publication US20200157092A1, “[1,2,4]-TRIAZOLO [1,5-A]-PYRIMIDINYL DERIVATIVES SUBSTITUTED WITH PIPERIDINE, […] […] OGA INHIBITORS” (priority 2017, published 2020).

The chains behind the UniProt entries cited, without tags or fusion partners.
UniProt O60502, whole entry: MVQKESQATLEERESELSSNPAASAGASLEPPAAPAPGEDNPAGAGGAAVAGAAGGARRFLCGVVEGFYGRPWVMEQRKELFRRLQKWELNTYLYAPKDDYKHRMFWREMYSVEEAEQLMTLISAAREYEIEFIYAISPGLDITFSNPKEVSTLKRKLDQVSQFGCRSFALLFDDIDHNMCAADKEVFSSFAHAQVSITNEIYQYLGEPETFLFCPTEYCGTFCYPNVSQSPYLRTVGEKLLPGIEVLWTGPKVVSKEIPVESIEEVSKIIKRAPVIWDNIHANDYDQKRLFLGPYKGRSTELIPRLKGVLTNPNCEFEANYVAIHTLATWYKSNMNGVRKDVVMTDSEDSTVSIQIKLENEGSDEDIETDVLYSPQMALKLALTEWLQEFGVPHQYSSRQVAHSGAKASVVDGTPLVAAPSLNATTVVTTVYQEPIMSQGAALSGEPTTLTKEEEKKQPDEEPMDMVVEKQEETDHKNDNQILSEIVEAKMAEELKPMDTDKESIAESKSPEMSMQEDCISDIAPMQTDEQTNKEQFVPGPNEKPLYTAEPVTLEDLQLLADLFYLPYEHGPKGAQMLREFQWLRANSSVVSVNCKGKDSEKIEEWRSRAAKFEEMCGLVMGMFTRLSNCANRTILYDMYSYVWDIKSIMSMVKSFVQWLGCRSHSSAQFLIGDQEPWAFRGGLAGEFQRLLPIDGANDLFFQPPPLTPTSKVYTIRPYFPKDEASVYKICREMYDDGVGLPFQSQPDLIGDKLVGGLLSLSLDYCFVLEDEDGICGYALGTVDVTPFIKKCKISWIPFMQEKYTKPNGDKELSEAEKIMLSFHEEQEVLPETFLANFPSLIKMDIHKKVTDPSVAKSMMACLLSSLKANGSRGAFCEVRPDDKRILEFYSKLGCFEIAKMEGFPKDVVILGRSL

Key:
[1] = molecular target: recombinant human Meningioma Expressed Antigen 5 (MGEA5), also referred to as O-GlcNAcase (OGA) (Homo sapiens, UniProt O60502); assay: OGA biochemical assay: inhibition of FM-GlcNAc hydrolysis, fluorescence; protocol A (10 nM OGA, 1 h) or protocol B (2 nM OGA, 6 h)
OGA = OGA (Homo sapiens, UniProt O60502); assay: OGA cellular assay: immunocytochemical detection of O-GlcNAcylated proteins in HEK293 cells inducible for P301L mutant human Tau; assay type: cell-based; conditions: 6 hours incubation; for Cellular Emax (%): maximum = Thiamet G 200 uM
[2] = Enzymatic protocol B (2 nM OGA, 6 h)
[3] = Enzymatic protocol A (10 nM OGA, 1 h)

Row | Structure (SMILES) | Enzymatic Emax (%) [1, 2] | Enzymatic hOGA; pIC50 [1, 2] | Cellular hOGA; pEC50 (OGA) | Cellular Emax (%) (OGA) | Enzymatic Emax (%) [1, 3] | Enzymatic hOGA; pIC50 [1, 3]
1 | CC(=O)Nc1ncc(CN2CCC[C@H](c3ccnc4cc[nH]c34)C2)s1 | 101.11% | 7.66 |  |  |  | 
2 | CC(=O)Nc1ncc(CN2CCCC(c3nc(C)cc4ccn(C)c34)C2)s1 (single isomer, unassigned) [89] | 102.02% | 7.37 |  |  |  | 
3 | CC(=O)Nc1ncc(CN2CCC[C@@H](c3cc4cc[nH]c4nc3C)C2)s1 | 96.53% | 6.06 |  |  |  | 
4 | CC(=O)Nc1ncc(CN2CCCC(c3cc4ccn(C)c4nc3C)C2)s1 (single isomer, unassigned) [102] | 88.86% | 5.76 |  |  |  | 
5 | CC(=O)Nc1ncc(CN2CCCC(Cc3cnc4cc[nH]c4c3)C2)s1 (single isomer, unassigned) [99] | 101.31% | 8.96 | 8.17 | 107.53% |  | 
6 | CC(=O)Nc1ncc(CN2CCC[C@@H](c3cnc4cc[nH]c4c3)C2)s1 | 97.25% | 6.06 |  |  |  | 
7 | CC(=O)Nc1ncc(S(=O)(=O)N2CCO[C@@H](c3cc(C)nc4ncnn34)C2)s1 |  |  | <5 | 8.12% | 99.24% | 6.78
8 | CC(=O)Nc1ncc(S(=O)(=O)N2CCOC(c3cc(C)nc4ncnn34)C2)s1 (single isomer, unassigned) |  |  | <5 | 23.67% | 106.42% | 8.20
9 | CC(=O)Nc1ncc(CN2CCC[C@H](c3cnc4ccn(C)c4c3)C2)s1 | 90.73% | 5.93 |  |  |  | 
10 | CC(=O)Nc1ncc(CN2CCCC(c3cc4ccn(C)c4nc3C)C2)s1 (single isomer, unassigned) [103] | 100.60% | 8.53 | 8.24 | 102.71% |  | 
11 | CC(=O)Nc1ncc(CN2CCCC(c3ccnc4cc[nH]c34)C2)s1 (single isomer, unassigned) | 76.38% | 5.43 |  |  |  | 
12 | CC(=O)Nc1ncc(CN2CCCC(c3cc(C)nc4cc[nH]c34)C2)s1 (single isomer, unassigned) | 101.27% | 8.19 | 8.59 | 99.79% |  | 
13 | CC(=O)Nc1ncc(CN2CCCC(c3ccnc4ccn(C)c34)C2)s1 (single isomer, unassigned) | 93.19% | 6.09 |  |  |  | 
14 | CC(=O)Nc1ncc(CN2CCCC(c3nc(C)cc4cc[nH]c34)C2)s1 (single isomer, unassigned) | 88.90% | 5.63 |  |  |  | 
15 | CC(=O)Nc1ncc(CN2CCCC(Cc3cnc4cc[nH]c4c3)C2)s1 (single isomer, unassigned) [98] |  | 7.42 | 6.12 | 49.85% |  | 
16 | CC(=O)Nc1ncc(CN2CCCC(c3cc(C)nc4ccn(C)c34)C2)s1 (single isomer, unassigned) | 94.20% | 5.87 |  |  |  | 
17 | CC(=O)Nc1ncc(CN2CCCC(c3nc(C)cc4ccn(C)c34)C2)s1 (single isomer, unassigned) [90] | 74.60% | 5.42 |  |  |  | 
